Data published in patent US7153858B2, “Arylpiperazinyl compounds” (Epix Delaware, Inc., priority 2003, dated 2006).

By UniProt entry, the sequences of proteins in these tests, tags left out.
UniProt P08908, whole entry, species assumed: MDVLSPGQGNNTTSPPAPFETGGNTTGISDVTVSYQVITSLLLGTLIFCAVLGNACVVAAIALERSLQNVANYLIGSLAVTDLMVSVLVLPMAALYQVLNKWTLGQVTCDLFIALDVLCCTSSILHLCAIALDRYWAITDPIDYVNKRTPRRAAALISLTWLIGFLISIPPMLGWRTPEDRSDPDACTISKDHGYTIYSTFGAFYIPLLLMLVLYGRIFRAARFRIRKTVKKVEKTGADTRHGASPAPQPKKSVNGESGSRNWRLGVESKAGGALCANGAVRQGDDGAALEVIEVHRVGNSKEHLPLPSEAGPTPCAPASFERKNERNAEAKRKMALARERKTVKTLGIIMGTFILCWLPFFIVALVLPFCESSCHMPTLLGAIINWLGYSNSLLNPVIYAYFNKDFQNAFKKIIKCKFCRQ

Each compound was assayed against 5-HT1A (Homo sapiens, UniProt P08908) (assay: 5-HT1A receptor affinity (Ki), Table 1).
Assay type: binding

| Ki [µM] | SMILES |
| --- | --- |
| 0.016 | CC(=O)Nc1cccc(N2CCN(CCCCNS(=O)(=O)c3ccc(C)cc3)CC2)c1 [N-(3-{4-[4-(Toluene-4-sulfonylamino)-butyl]-piperazin-1-yl}-phenyl)-acetamide] |
| 0.0068 | CC(=O)Nc1cccc(N2CCN(CCCCNS(=O)(=O)c3ccc(C)cc3)CC2)c1 [N-(3-{4-[4-(Toluene-4-sulfonylamino)-butyl]-piperazin-1-yl}-] [N-(3-{4-[4-(Toluene-4-sulfonylamino)-butyl]-piperazin-1-yl}-phenyl)-acetamide] |
| 1.36 | Cc1ccc(S(=O)(=O)NCCCCN2CCN(c3cccc(NC(=O)C(C)(C)C)c3)CC2)cc1 [2,2-Dimethyl-N-(3-{4-[4-(toluene-4-sulfonylamino)-butyl]-piperazin-1-yl}-phenyl)-propionamide] |
